{
  "source": "patent US10265289B2",
  "about": "“Method and medicines for treating melanoma” (SICHUAN JIUZHANG BIOLOGICAL SCIENCE AND TECHNOLOGY CO., LTD., priority 2015, dated 2019)",
  "key": {"mouse melanoma B16 [1]": {"tested_on": "mouse melanoma B16", "test": "Example 7: chlorogenic acid-5-flurouracil combination against mouse melanoma B16", "conditions": "5-flurouracil 500 mg/kg × 4, i.p., BALB/c mice, end of study"}, "mouse melanoma B16 [2]": {"tested_on": "mouse melanoma B16", "test": "Example 6: chlorogenic acid-adriamycin or chlorogenic acid-cisplatin combination against mouse melanoma B16", "assay_type": "in vivo", "conditions": "adriamycin 3 mg/kg × 6, i.p.", "description": "Single adriamycin and its combined drug were both administrated every other day, with total six successive administrations. […] Single cisplatin and its combined drug were both administrated every three days, with total three administrations. […] Each group contains 15 animals."}, "mouse melanoma B16 [3]": {"tested_on": "mouse melanoma B16", "test": "Example 4: tumor inhibitory rate of chlorogenic acid against mouse melanoma B16", "conditions": "cyclophosphamide 60 mg/kg × 1, i.p., C57BL/6 mice, before dosing", "description": "(§1) After inoculation, animals were divided into groups next day, weighed, and administration of drugs started.\nEach group includes 15 animals."}, "mouse melanoma B16 [4]": {"tested_on": "mouse melanoma B16", "test": "Example 5: chlorogenic acid-cyclophosphamide combination against mouse melanoma B16", "conditions": "cyclophosphamide 60 mg/kg × 1, i.p., before dosing", "description": "as §1\nEach group contains 15 animals."}},
  "data": [
    {"compound": "O=c1[nH]cc(F)c(=O)[nH]1", "note": "[5-flurouracil, 5-fluorouracil]", "values": [
      {"measurement": "Body weight (g) x ± SD End", "setting": "mouse melanoma B16 [1]", "result": "18.30 ± 1.19", "unit": "g"}
    ]},
    {"compound": "COc1cccc2c1C(=O)c1c(O)c3c(c(O)c1C2=O)C[C@@](O)(C(=O)CO)C[C@@H]3O[C@H]1C[C@H](N)[C@H](O)[C@H](C)O1", "note": "[Adriamycin, adriamycin]", "values": [
      {"measurement": "Body weight (g) x ± SD Initial", "setting": "mouse melanoma B16 [2]; before dosing", "result": "19.65 ± 0.97", "unit": "g"},
      {"measurement": "Body weight (g) x ± SD End", "setting": "mouse melanoma B16 [2]; end of study", "result": "21.46 ± 3.53", "unit": "g"}
    ]},
    {"compound": "O=P1(N(CCCl)CCCl)NCCCO1", "note": "(centres unmarked) [cyclophosphamide]", "values": [
      {"measurement": "Body weight (g) x ± SD Initial", "setting": "mouse melanoma B16 [3]", "result": "19.93 ± 0.53", "unit": "g"},
      {"measurement": "Body weight (g) x ± SD Initial", "setting": "mouse melanoma B16 [4]", "result": "19.59 ± 0.81", "unit": "g"}
    ]}
  ]
}
